Experiments:
Type in all cases: in vivo, rat
[1] = tested on: SOD; assay: SOD activity of brain tissues from permanent 2-VO rats
Description: (§1) Rats were randomly divided into six experimental groups (20 rats/each group): one sham-operated group, one vehicle control group, one piracetam-treated group (600 mg/kg), and three dl-PHPB-treated groups (13, 39, and 129 mg/kg). In 10 days after onset of 2-VO, drugs and vehicle were administered orally to rats for 21 days (one time/each day). The spatial learning and memory capability of rats were detected by Morris water maze in the 25-30 days after operation. The Morris water test was commenced at 40 min after drugs treated. The biochemical and pathology assays were conducted later (in 24 h) after behavioral tests.
(§2) The biochemical assays were conducted later (in 24 h) after behavioral testing. Eight rats in each group were anesthetized with ether and sacrificed. The brains were quickly removed and cleaned with ice-cold saline. Then the parietal cortex and hippocampus were isolated. For biochemical analysis, the tissues were weighed and homogenized in ice-cold saline with the proportion of 1:9 (w/v). Homogenization (IKA, Germany) was carried out for 2 min in an ice bath. […] The levels of choline acetyltransferase (ChAT) SOD, and MDA activities were determined with commercial colorimetric assay kits (Nanjing Jiancheng Bioengineering Institute, China). The content of protein in the supernatant was determined by Bradford method using BSA as standard.

[2] = tested on: ChAT; assay: ChAT activity of brain tissues from permanent 2-VO rats
Description: as §1, §2

[3] = tested on: MDA; assay: MDA level of brain tissues from permanent 2-VO rats
Description: as §1, §2

NC(=O)CN1CCCC1=O [Piracetam, reference compound]
SOD activity in hippocampus ([1]; hippocampus, doses not given): no significant effects | SOD activity in cortex ([1]; piracetam 600 mg/kg, 21 days): significantly alleviated the increase of SOD activity | ChAT activity in cortex ([2]; cortex, data not shown): had no effect | activity of ChAT in hippocampus ([2]; piracetam 600 mg/kg, 21 days): did not show significant effects | MDA level in hippocampus ([3]; hippocampus, doses not given): no significant effects | MDA level in cortex ([3]; piracetam 600 mg/kg, 21 days): did not show significant effects

Reference: patent US20110224300A1, “USE OF POTASSIUM 2-(a- HYDROXYPENTYL) BENZOATE IN THE MANUFACTURE OF MEDICAMENTS FOR PREVENTING AND/OR TREATING SENILE DEMENTIA” (Institute of Mataria Medica, Chinese Academy of Me, priority 2008, published 2011)
